High-throughput results (PubChem)
SMARCA2 activ = SMARCA2 (BRM) function activators, primary screen, cell-based, luminescence, high throughput; MG213 cells, MMTV-luciferase reporter, dexamethasone, overnight; activation, % at 9.1 µM; 370,000 compounds, 1% hits; AID 652017, 2013; in the data active = activation above about 7.8%;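 note: 0% = vehicle wells and 100% = reference activator wells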
PDI inh = inhibitors of human PDI, primary screen, biochemical, turbidity, single point, plate reader; Protein disulfide-isomerase (Homo sapiens), P07237; PDI insulin aggregation turbidity, A650, 90 min; inhibition, % at 10 µM; 350,000 compounds, 0.052% hits;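 active = mean inhibition across replicates of 30% or more, whatever share of single replicates reach that level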
Rev-erbA mod = modulators of Rev-erb alpha DNA binding, primary screen, biochemical, FITC-DNA, fluorescence polarization, uHTS. 370,000 compounds, 0.79% hits. Rev-erbα–FITC-DNA binding, 90 min. Nuclear receptor subfamily 1 group D member 1 (Homo sapiens), P20393. activity, % at 10 µM. AID 1259318, 2017;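 active = activity above about 14%, limit read from the data; passing the limit was not always enough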;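 note: 0% = DMSO wells with 35 nM protein and 100% = DMSO wells with 750 nM protein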
ERp5 inh = inhibitors of ERp5-driven insulin aggregation, primary screen, biochemical, turbidity, absorbance 650 nm, single point. AID 651711, 2012. 90 min. inhibition, % at 9.99 µM. Protein disulfide-isomerase A6 (Homo sapiens), Q15084. 350,000 compounds, 0.05% hits;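 active = mean replicate inhibition above about 25%, with every replicate also reaching it, limit read from the data, passing the limit was not always enough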
UUG fidelity = modulators of start codon recognition fidelity in yeast; AID 602363; hit rate 0.13% among 350,000; activity score, % at 18.7 µM; S. cerevisiae UUG-firefly luciferase reporter, luminescence/redox ratio;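 active = replicate mean at a twofold rise or more, about +100% in these data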;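 note: firefly luciferase made from a UUG start codon reports start codon fidelity; reporter light over untreated wells divided by growth signal over untreated wells; some hits fall short of that in this replicate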
GSIS activator = GLuc luminescence reporter in INS-1E cells, primary screen for activators of glucose-dependent secretion of insulin; INS-1E GLuc reporter insulin secretion, 2-3 h; activation, % at 16.6 µM; 370,000 compounds, 0.61% hits; AID 743287, 2014;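 active = lowest replicate activation of at least 40%, so every replicate reaches that level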;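 note: 0% = median of neutral control wells and 100% = median of IBMX positive control wells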
SMARCA2 conf = SMARCA2 (BRM) function activators, confirmation, cell-based, luminescence, triplicate. shares compounds with SMARCA2 activ. MG213 cells, MMTV-luciferase with dexamethasone, overnight; MG213 cells expressing E1A, Rb sequestered; DMSO wells 0%, reference activator 100%. activation, % at 9.1 µM. 3,500 compounds, 30% hits. AID 652260, 2013;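 active = activation above its plate's cutoff, the mean activation of tested wells plus 3 SD, cut at about 7.9% in these data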
VP16 Luc act = GAL4-VP16 luciferase reporter activation, counter-screen for SMARCA2 (BRM) activator project, cell-based, pG5luc, luminescence, high throughput; shares compounds with SMARCA2 activ; HEK293 GAL4-VP16 pG5luc reporter; scaled: DMSO wells 0%, SAHA wells 100%; activation, % at 9.1 µM; 3,500 compounds, 41% hits; AID 686939, 2013;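 active = activation above the solvent-only control well mean plus 3 SD, averaged across control plates, cut at about 5.2% in these data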
* = called active by the depositor; / = no result given. This is a sample that favours compounds with a hit; in the whole collection about 2.1% have one here.

entry | canonical_smiles | SMARCA2 activ | PDI inh | Rev-erbA mod | ERp5 inh
1 | Cc1c(NC(=O)C2CC(c3c(F)cccc3Cl)=NO2)c(=O)n(-c2ccccc2)n1C (stereo not drawn) | 8.4* | -4 | -4 | 2
2 | Oc1cccc(Nc2ncnc3c2oc2ccccc23)c1 | 8.3* | -5 | 2 | -4
3 | Oc1ccc(Nc2ncnc3c2oc2ccccc23)cc1 | 3 | -3 | 5 | 3
4 | Cc1ccc(/C=C2/CCc3c([nH]c4ccccc34)C2=O)cc1 | 8.2* | -3 | -2 | /
5 | COc1cccc(-c2cc(C(=O)N3CCCCC3C)no2)c1 (stereo not drawn) | 12* | 1 | 2 | /
6 | COc1cccc(-c2cc(C(=O)N3CCCCCC3)no2)c1 | 1 | / | 4 | 0
7 | C[C@H](CO)N1C[C@H](C)[C@@H](CN(C)Cc2ccc(C(F)(F)F)cc2)Oc2ccc(NC(=O)Cn3cnnn3)cc2C1=O | / | / | / | -3
8 | COCCCNC(=O)/C=C/c1ccc(Cl)cc1 | 12* | -5 | -2 | -4
9 | Cc1ccc(C)c(CSC2=NN3CCCC(=O)N=C3S2)c1 | 8.5* | 20 | -3 | 6
10 | O=C(N/N=C/c1ccsc1)c1ccccn1 | 2 | -6 | 1 | -1
11 | COc1cc(/C=N/NC(=O)c2ccccn2)cc2c1OCO2 | 17* | -8 | 1 | 4
12 | CC(C)(C)c1ccc(/C=N/NC(=O)c2ccccn2)cc1 | 9.8* | -2 | -3 | -1

entry | UUG fidelity | GSIS activator | SMARCA2 conf | VP16 Luc act
1 | -15 | 6 | 0 | -1
2 | / | -4 | 12* | 9.1*
3 | -15 | 20 | / | /
4 | -15 | / | 3 | 11*
5 | -12 | 6 | 6 | 12*
6 | -48 | -34 | / | /
7 | / | 2 | / | /
8 | -12 | 11 | 3 | 1
9 | / | -20 | -1 | 0
10 | -31 | 5 | / | /
11 | / | -2 | 8.5* | 8.5*
12 | / | -5 | 2 | 9.0*

(listing goes on)
entry | canonical_smiles | SMARCA2 activ | PDI inh | Rev-erbA mod | ERp5 inh
13 | O=C(N/N=C/c1ccc(Br)s1)c1ccco1 | -1 | 5 | 6 | 4
14 | O=C(N/N=C/c1ccc(Br)s1)c1ccccn1 | 11* | -24 | 1 | /
15 | CCCNC(=O)N[C@@H]1CC[C@@H](CCNS(=O)(=O)c2cccc(F)c2)O[C@@H]1CO | / | / | / | 4
16 | Cc1ccc(S(=O)(=O)Nc2ccc3c(c2)C(=O)N([C@H](C)CO)C[C@H](C)[C@@H](CN(C)C)O3)cc1 | / | / | / | 3
17 | Cc1ccc(-c2cn3cccc(C)c3n2)cc1 | 14* | 2 | -2 | -1
18 | Cc1cccn2cc(-c3c[nH]c4ccccc34)nc12 | 17* | -3 | 2 | 1
19 | CN1c2ccsc2/C(=N/Nc2ccc(F)cc2)CS1(=O)=O | 9.4* | 19 | 4 | -11
20 | CC(C)c1ccc(C(=O)NN2C(=O)C3CCCCC3C2=O)cc1 (stereo not drawn) | 13* | -5 | 2 | 4
21 | Cc1nc(-c2ccc([N+](=O)[O-])cc2)sc1C(=O)O | 9.6* | -6 | 4 | 7
22 | Cc1ccc(-c2nc(C)c(C(=O)O)s2)cc1 | 11* | 0 | -7 | -1
23 | Cc1nc(-c2ccccc2)sc1C(=O)O | 2 | 1 | 1 | 1
24 | COCc1cn(CC[C@@H]2CC[C@@H](NC(=O)c3ccccc3)[C@H](CO)O2)nn1 | / | / | / | -9

entry | UUG fidelity | GSIS activator | SMARCA2 conf | VP16 Luc act
13 | / | -6 | / | /
14 | -30 | 10 | 14* | 9.0*
15 | -9 | -14 | / | /
16 | -12 | -4 | / | /
17 | / | 4 | 4 | 12*
18 | -16 | 8 | 6 | 10*
19 | -22 | 4 | 8.1* | 6.5*
20 | -20 | 5 | 9.3* | 8.5*
21 | -16 | 15 | 6 | 1
22 | / | -1 | 9.5* | 7.4*
23 | / | 14 | / | /
24 | -10 | 8 | / | /

The results go on.
entry | canonical_smiles | SMARCA2 activ | PDI inh | Rev-erbA mod | ERp5 inh
25 | CC1=NN(c2ccccc2)C(=O)C1 | -7 | 4 | 4 | 4
26 | CC1=NN(Cc2ccccc2)C(=O)C1 | 10* | 8 | 4 | /
27 | Cc1ccc(C(=O)c2cnc3cc4c(cc3c2S(=O)(=O)c2ccccc2)OCCO4)cc1 | 9.5* | -9 | 2 | 2
28 | COc1ccc(NC(=O)Nc2ccc3c(c2)C(=O)N([C@@H](C)CO)C[C@@H](C)[C@@H](CN(C)Cc2ccc(C(=O)O)cc2)OCCCC[C@H](C)O3)cc1 | / | / | / | 13
29 | Cc1cccn2c(=O)c3cc(C(=O)NC4CCCCC4)c(=N)n(Cc4ccccc4)c3nc12 | -3 | 17 | 6 | -8
30 | COc1ccc(CCNC(=O)c2cc3c(=O)n4ccccc4nc3n(C3CCCCC3)c2=N)cc1OC | 12* | -16 | 3 | 5
31 | Cc1cccn2c(=O)c3cc(C(=O)NCCN4CCOCC4)c(=N)n(CCCN4CCOCC4)c3nc12 | -2 | -1 | -2 | 1
32 | Cc1cccn2c(=O)c3cc(C(=O)NCCN4CCOCC4)c(=N)n(CCc4ccccc4)c3nc12 | 11* | 1 | -3 | /
33 | Cc1cccn2c(=O)c3cc(C(=O)NC4CCCC4)c(=N)n(C4CCCCC4)c3nc12 | 8.2* | 1 | -3 | 2
34 | COc1ccc(CCNC(=O)c2cc3c(=O)n4ccccc4nc3n(C3CCCCC3)c2=N)cc1 | 2 | 2 | 0 | -13
35 | C[C@H](CO)N1C[C@H](C)[C@H](CN(C)Cc2ccc(-c3ccccc3)cc2)Oc2ccc(NC(=O)NC3CCCCC3)cc2C1=O | / | / | / | -5
36 | COc1ccc2c3c([nH]c2c1)[C@@H](CO)N(C(C)=O)CC31CN(C(=O)Nc2ccc(F)cc2F)C1 | / | / | / | -3

entry | UUG fidelity | GSIS activator | SMARCA2 conf | VP16 Luc act
25 | -17 | / | / | /
26 | -1 | 15 | -4 | 1
27 | -7 | / | 0 | 5.5*
28 | 4 | 10 | / | /
29 | 11 | 9 | / | /
30 | 2 | 31 | 6 | 2
31 | -20 | -9 | / | /
32 | -4 | / | 2 | 1
33 | -5 | 10 | 8.3* | -1
34 | 9 | -5 | / | /
35 | 20 | -19 | / | /
36 | / | -13 | / | /

3 structures from above, ordered by formula weight, low to high.
entry | canonical_smiles | SMARCA2 activ | PDI inh | Rev-erbA mod | ERp5 inh
33 | Cc1cccn2c(=O)c3cc(C(=O)NC4CCCC4)c(=N)n(C4CCCCC4)c3nc12 | 8.2* | 1 | -3 | 2
32 | Cc1cccn2c(=O)c3cc(C(=O)NCCN4CCOCC4)c(=N)n(CCc4ccccc4)c3nc12 | 11* | 1 | -3 | /
28 | COc1ccc(NC(=O)Nc2ccc3c(c2)C(=O)N([C@@H](C)CO)C[C@@H](C)[C@@H](CN(C)Cc2ccc(C(=O)O)cc2)OCCCC[C@H](C)O3)cc1 | / | / | / | 13

entry | UUG fidelity | GSIS activator | SMARCA2 conf | VP16 Luc act
33 | -5 | 10 | 8.3* | -1
32 | -4 | / | 2 | 1
28 | 4 | 10 | / | /

(more compounds)
entry | canonical_smiles | SMARCA2 activ | PDI inh | Rev-erbA mod | ERp5 inh
37 | ON=Cc1ccnc2ccccc12 | -5 | -3 | -8 | 2
38 | O=C(O)c1ccccc1N/N=C\c1ccnc2ccccc12 | 8.0* | -4 | 2 | /
39 | Nn1c(SCc2ccccc2)nc2ccccc21 | 12* | 2 | 1 | 2
40 | c1ccc(-c2csc(CN3CCCCC3)n2)cc1 | 14* | 4 | 6 | -3
41 | COc1ccc(S(=O)(=O)N(C)C[C@H]2OCCCC[C@@H](C)Oc3ccc(NC(=O)c4ccncc4)cc3C(=O)N([C@@H](C)CO)C[C@H]2C)cc1 | / | / | / | -3

entry | UUG fidelity | GSIS activator | SMARCA2 conf | VP16 Luc act
37 | 16 | 20 | / | /
38 | / | / | 3 | 3
39 | -20 | -15 | 8.8* | 14*
40 | -16 | / | 8.1* | 15*
41 | 20 | -19 | / | /
